Source: patent US6060451A, “Thrombin inhibitors based on the amino acid sequence of hirudin” (The National Research Council of Canada, priority 1995, dated 2000)

Target: bovine α-thrombin (Bos taurus, UniProt P00735)
Details: read-out: IC50 fibrinogen clotting / fibrin clot formation

CC[C@H](C)[C@H](NC(=O)[C@H](CCC(=O)O)NC(=O)[C@H](CCC(=O)O)NC(=O)[C@H](Cc1ccccc1)NC(=O)[C@H](CC(=O)O)NC(=O)CNC(=O)[C@H](CC(=O)O)NC(=O)[C@H](CC(N)=O)NC(=O)[C@H](Cc1c[nH]cn1)NC(=O)[C@H](CO)NC(=O)[C@H](CCC(N)=O)NC(=O)[C@@H]1CCCN1C(=O)[C@H](CCCCN)NC(=O)[C@@H]1CCCN1C(=O)[C@@H](NC(C)=O)[C@@H](C)O)C(=O)N1CCC[C@H]1C(=O)N[C@@H](CCC(=O)O)C(=O)N[C@@H](CCC(=O)O)C(=O)N[C@@H](Cc1ccc(O)cc1)C(=O)N[C@@H](CC(C)C)C(=O)N[C@@H](CCC(N)=O)C(=O)O [native desulfo hirudin^45-65]
IC50: 940 ± 200 nM
